Reference: patent US9387209B2, “Histone deacetylases (HDACs) inhibitors” (ANNJI PHARMACEUTICAL CO., LTD., priority 2012, dated 2016)

The chains behind the UniProt entries cited, without tags or fusion partners. Residues count along the entry.
UniProt P05067, 672-711 limits assumed: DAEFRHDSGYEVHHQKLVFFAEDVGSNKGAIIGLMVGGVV

Tests used:
[1] = tested on: hippocampus-lesioned mice; assay: Rotarod test in Alzheimer disease model; settings: mouse, in vivo, ip, 10 mg/kg
[2] = biological target: T1, zinc-mediated β-amyloid aggregation (Homo sapiens, UniProt P05067); assay: Anti-amyloid aggregation assay, CR (Congo red); type: biochemical
Procedure: (§1) Anti-Amyloid Aggregation Assay.
(§2) The effects of compounds on inhibition of β-amyloid aggregation were assayed. The levels of β-amyloid aggregates were determined by thioflavin S, BCA or CR assays (Tables 1). Thioflavin S, and Congo red are for in vitro staining of aggregated β-amyloid. Bicinchoninic acid (BCA) assay determines the total protein level or concentration.

[3] = biological target: T1, zinc-mediated β-amyloid aggregation; assay: Anti-amyloid aggregation assay, BCA; type: biochemical
Procedure: as §1, §2

[4] = biological target: T1, zinc-mediated β-amyloid aggregation; assay: Anti-amyloid aggregation assay, thioflavin S; type: biochemical
Procedure: as §1, §2

Q: How did the “learning performance in rotarod test” value [1] turn out when `Cc1nc2cc(/C=C/C(=O)NO)ccc2c(=O)n1-c1ccccc1` [Compound 1c, (2E)-3-(3,4-dihydro-2-methyl-4-oxo-3-phenylquinazolin-7-yl)-N-hydroxyacrylamide] was run?
A: The value was “improved learning performance”.

Q: What about the IC50 [2] of the same compound?
A: Its IC50 is 44.1 µM.

Q: And the IC50 [3]?
A: Its IC50 is 11.1 µM.

Q: What about the IC50 [4] of the same compound?
A: The IC50 was 18.4 µM.
